The values below are quoted from earlier work in paper PMC6829319.

Sequences of proteins named here, by UniProt entry; tags and fusion partners are left off. A change or cut given only in a name is not applied to a line headed by its entry. Residues count along the entry.
UniProt P0A9D4: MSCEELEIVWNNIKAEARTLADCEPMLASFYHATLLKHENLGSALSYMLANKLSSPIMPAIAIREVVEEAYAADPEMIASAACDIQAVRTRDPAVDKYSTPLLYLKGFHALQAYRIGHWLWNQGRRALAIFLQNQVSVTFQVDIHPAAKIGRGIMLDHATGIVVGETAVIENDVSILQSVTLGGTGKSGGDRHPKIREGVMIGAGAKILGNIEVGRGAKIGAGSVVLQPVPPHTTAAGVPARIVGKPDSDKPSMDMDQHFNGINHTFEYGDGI
UniProt P0ABK5, 2-323: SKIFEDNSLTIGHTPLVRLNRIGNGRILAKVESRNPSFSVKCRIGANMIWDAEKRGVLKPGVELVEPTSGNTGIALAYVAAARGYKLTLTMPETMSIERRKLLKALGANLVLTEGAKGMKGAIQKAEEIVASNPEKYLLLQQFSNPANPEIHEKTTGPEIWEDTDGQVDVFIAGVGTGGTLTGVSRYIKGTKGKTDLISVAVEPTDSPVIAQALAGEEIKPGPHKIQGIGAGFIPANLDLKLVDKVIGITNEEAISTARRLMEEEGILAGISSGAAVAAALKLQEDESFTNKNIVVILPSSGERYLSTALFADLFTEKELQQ

The series concerns the target CysE (serine acetyltransferase) (Escherichia coli) (UniProt P0A9D4).

The Kd is a measure of binding affinity in units of concentration. With CysK (from UniProt P0ABK5), the Kd was 5 nM.
